Measurements as given in patent publication US20120165310A1, “ETHER DERIVATIVES OF BICYCLIC HETEROARYLS” (NOVARTIS AG, priority 2009, published 2012).

Sequences of proteins named here, by UniProt entry; tags and fusion partners are left off. Residues count along the entry.
UniProt P08069, 31-1367 limits assumed: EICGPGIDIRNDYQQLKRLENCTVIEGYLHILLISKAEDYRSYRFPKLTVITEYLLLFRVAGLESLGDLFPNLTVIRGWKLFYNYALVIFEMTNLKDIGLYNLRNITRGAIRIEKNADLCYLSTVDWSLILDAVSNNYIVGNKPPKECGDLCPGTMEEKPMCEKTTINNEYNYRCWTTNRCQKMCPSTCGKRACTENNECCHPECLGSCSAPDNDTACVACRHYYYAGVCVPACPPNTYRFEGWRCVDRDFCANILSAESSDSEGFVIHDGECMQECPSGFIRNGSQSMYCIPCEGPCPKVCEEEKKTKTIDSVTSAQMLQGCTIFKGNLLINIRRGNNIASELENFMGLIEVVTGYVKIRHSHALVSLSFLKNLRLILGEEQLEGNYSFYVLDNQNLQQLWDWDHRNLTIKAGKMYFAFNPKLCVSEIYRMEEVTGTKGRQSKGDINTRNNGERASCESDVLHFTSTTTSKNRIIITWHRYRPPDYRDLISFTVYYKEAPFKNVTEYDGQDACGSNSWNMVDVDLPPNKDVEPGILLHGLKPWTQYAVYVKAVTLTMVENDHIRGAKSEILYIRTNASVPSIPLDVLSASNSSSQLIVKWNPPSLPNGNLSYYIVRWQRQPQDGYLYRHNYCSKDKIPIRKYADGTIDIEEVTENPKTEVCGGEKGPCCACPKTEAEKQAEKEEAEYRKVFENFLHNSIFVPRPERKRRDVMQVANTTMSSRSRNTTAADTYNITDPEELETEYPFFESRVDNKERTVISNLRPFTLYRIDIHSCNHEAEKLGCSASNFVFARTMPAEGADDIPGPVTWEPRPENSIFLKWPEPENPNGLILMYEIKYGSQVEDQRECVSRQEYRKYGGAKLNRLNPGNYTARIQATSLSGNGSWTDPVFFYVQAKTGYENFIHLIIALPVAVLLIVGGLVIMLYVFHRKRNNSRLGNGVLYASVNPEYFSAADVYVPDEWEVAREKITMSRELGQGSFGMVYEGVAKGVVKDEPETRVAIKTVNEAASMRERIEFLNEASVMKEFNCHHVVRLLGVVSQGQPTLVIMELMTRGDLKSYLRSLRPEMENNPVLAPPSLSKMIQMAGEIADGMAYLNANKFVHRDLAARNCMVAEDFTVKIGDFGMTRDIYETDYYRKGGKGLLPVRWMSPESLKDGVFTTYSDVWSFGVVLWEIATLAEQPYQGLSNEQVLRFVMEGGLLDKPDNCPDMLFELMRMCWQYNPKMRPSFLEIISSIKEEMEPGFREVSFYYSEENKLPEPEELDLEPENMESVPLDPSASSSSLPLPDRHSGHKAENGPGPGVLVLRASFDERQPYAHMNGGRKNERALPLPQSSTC

Target: IGF-1R (Homo sapiens, UniProt P08069)
Assay: Cellular IGF-1R assay: capture ELISA (MSD) of receptor phosphorylation in Hek293 cells
Conditions: read-out: IGF-1R IC50; Hek293-IGF1R cells, 1 h pre-incubation, 10 min IGF stimulation, pIGF1R capture ELISA

- IC50: 0.293 µM
Structure (SMILES): Nc1ncnc2c1c(-c1cccc(OCC3CCCCO3)c1)cn2[C@H]1C[C@@H](CN2CCCS(=O)(=O)CC2)C1 (stereo partly shown)
